System: C3H/BA mammary adenocarcinoma
Type: in vivo, mice (C3H/He)
Details: 5 mg/kg i.p. once daily for nine days
Procedure: On day zero, 2 mm^2 trocar fragments of C3H/BA mammary adenocarcinoma were implanted subcutaneously in the axillary region into groups of six C3H/He female mice. Starting on day 1, the test compound was administered intraperitoneally in 40% Encapsin given once daily for nine days. Control animals received identical treatment without test compound. The percentage of inhibition was calculated by comparing the mass of the control tumors (receiving diluent only) on day 14 to those of animals receiving test compound.

SMILES: Nc1nc2c(c(=O)[nH]1)SC(CCc1ccc(C(=O)N[C@@H](CCC(=O)O)C(=O)O)s1)CN2 (stereo partly drawn) [Compound 21, 4-[2-(2-Amino-4-oxo-4,6,7,8-tetrahydro-3H-pyrimido[5,4-6][1,4]thiazin-6-yl)-ethyl]-2,5-thienoylamino-L-glutamic acid]
- Survivors: 5/6

Source: US5641774A, “Compounds useful as antiproliferative agents and garft inhibitors” (Agouron Pharmaceuticals, Inc., priority 1995, dated 1997)
